Assay results published in patent publication US9409857B2, “Agomelatine sulfuric acid complex, and preparation method and application thereof” (SHANGHAI RIGHTHAND PHARMTECH. CO., LTD., priority 2012, dated 2016).

Assay: Determination of water solubility by external standard method
[1] = 0.1 mol/L hydrochloric acid aqueous solution

Substance | Agomelatine content (solubility) [1] | Agomelatine content (solubility) (pH = 7.0 buffer solution) | Agomelatine content (solubility) (pury water)
Agomelatine benzenesulfonic acid complex | 0.38 mg/mL | 0.29 mg/mL | 0.30 mg/mL
Agomelatine sulfuric acid complex | 0.40 mg/mL | – | –
